Data set [1] concerns the target proteinase K (Parengyodontium album, UniProt P06873). In words: Sensitivity to proteinase K.
A short description of data set [2]: Heat stability of the peptide.

Sequences of proteins named here, by UniProt entry; tags and fusion partners are left off. A change or cut given only in a name is not applied to a line headed by its entry.
UniProt P06873: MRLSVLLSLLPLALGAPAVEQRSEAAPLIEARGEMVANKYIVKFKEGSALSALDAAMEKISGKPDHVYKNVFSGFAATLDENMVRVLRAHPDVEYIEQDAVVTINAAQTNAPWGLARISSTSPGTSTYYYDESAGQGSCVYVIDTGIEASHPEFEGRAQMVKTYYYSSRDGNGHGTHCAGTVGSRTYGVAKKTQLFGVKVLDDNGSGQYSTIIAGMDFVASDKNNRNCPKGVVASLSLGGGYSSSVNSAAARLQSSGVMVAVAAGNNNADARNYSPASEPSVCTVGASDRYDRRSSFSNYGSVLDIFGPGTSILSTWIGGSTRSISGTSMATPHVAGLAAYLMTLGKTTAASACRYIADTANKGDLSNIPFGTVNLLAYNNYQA

As for LCSYIDV, the “sensitivity to proteinase K” value in data set [1] is given as “sensitive to proteinase K”. The heat stability result in data set [2] is “heat liable”.

Values taken from patent US20060258596A1, “Antimicrobial agents” (published 2006).
